The target in one assay is PI 3-kinase beta (Homo sapiens (Human), UniProt P42338). The note with it: read-out: Assay B PI3Kβ IC50.
Assay [1] addresses PI 3-kinase alpha (Rat-1 pBABEpuro Myr-HA-hp110 alpha cells) (Homo sapiens (Human), UniProt P42336). Description: cell-based. The note with it: Assay H PI3Kα IC50.
The target of a further assay is PI 3-kinase alpha (Homo sapiens (Human), UniProt P42336). The note with it: read-out: Assay A PI3Kα IC50.
For assay [2], the target named is PI 3-kinase beta (Rat-1 pBABEpuro Myr-HA-hp110 beta cells) (Homo sapiens (Human), UniProt P42338). The assay can be described thus: cell-based. The note with it: Assay I PI3Kβ IC50.

The chains behind the UniProt entries cited, without tags or fusion partners. Where a name states a change or a piece, a line headed by the entry shows the natural chain unless it says otherwise.
UniProt P42338: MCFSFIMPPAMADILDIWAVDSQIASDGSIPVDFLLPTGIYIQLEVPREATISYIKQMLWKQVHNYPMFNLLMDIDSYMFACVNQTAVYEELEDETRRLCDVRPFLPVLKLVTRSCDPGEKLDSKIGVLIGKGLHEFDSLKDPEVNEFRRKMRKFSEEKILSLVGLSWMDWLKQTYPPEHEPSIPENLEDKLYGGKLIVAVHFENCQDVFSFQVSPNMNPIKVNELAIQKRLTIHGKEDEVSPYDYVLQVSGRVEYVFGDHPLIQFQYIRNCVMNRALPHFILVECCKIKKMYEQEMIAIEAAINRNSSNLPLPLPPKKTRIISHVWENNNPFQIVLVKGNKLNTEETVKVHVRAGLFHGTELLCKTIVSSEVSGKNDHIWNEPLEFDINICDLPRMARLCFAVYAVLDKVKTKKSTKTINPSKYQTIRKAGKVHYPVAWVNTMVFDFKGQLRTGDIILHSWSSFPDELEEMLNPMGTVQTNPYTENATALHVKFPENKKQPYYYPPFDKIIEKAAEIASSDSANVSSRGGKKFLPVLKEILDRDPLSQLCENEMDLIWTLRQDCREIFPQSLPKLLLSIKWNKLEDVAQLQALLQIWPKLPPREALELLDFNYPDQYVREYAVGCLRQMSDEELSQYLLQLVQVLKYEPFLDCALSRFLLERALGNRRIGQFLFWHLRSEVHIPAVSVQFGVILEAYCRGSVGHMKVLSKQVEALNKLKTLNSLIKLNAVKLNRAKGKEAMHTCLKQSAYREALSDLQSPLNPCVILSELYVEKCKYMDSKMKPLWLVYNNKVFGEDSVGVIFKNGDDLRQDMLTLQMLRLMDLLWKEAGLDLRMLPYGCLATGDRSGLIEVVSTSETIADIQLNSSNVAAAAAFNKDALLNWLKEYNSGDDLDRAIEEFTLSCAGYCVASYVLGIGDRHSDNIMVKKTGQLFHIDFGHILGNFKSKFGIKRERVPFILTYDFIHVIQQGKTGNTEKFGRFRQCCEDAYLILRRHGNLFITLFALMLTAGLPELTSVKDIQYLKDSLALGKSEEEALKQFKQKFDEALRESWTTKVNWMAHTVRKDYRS
UniProt P42336, whole entry, looked up: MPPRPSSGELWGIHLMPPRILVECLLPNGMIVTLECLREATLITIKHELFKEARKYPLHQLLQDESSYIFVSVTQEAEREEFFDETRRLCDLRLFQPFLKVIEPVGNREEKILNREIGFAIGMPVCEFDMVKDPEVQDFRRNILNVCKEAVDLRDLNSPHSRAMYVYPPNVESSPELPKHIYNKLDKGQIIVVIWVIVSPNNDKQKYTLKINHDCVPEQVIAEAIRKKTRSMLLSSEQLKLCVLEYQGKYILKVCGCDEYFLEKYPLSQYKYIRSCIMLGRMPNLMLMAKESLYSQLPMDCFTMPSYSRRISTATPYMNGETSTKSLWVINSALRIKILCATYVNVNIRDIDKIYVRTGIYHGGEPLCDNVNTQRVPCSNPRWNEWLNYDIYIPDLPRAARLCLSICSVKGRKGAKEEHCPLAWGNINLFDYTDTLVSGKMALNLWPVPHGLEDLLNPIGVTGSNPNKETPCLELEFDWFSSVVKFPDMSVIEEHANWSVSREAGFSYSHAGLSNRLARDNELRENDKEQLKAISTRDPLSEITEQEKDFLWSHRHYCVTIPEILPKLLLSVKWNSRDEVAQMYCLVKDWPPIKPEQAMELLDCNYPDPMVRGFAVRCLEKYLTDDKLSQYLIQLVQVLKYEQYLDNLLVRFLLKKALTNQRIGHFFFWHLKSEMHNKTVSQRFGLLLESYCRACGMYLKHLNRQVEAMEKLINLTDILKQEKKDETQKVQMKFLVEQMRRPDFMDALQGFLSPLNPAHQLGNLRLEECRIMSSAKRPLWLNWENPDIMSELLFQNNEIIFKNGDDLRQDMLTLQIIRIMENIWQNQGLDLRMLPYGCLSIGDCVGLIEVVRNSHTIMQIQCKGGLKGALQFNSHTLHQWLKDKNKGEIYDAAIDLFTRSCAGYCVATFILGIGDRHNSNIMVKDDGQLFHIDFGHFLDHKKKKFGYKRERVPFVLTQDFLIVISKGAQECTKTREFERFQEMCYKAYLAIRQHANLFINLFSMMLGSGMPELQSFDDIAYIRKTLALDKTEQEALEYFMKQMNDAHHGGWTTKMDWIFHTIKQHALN

Structures are written as SMILES. Structures can show the parent of a compound that is named as a salt.

On to `Cc1noc(-c2cc(-c3cc(S(=O)(=O)N[C@H]4CC[C@H](O)CC4)ccc3C)cnc2N)n1` [Example 12, trans 3-[6-Amino-5-(3-methyl-[1,2,4]oxadiazol-5-yl)-pyridin-3-yl]-N-(4-hydroxy-cyclohexyl)-4-methyl-benzenesulfonamide, hydrochloride salt], for which the IC50 on PI 3-kinase beta was 0.23 µM; in assay [1] it was 1.46 µM; on PI 3-kinase alpha, 0.16 µM; in assay [2] it was 3.94 µM.
For the compound `Cc1ncc(-c2cc(-c3cc(S(=O)(=O)N[C@H]4CC[C@H](O)CC4)ccc3C)cnc2N)s1` [Example 97, 3-(6-amino-5-(2-methylthiazol-5-yl)pyridin-3-yl)-N-((1r,4r)-4-hydroxycyclohexyl)-4-methylbenzenesulfonamide], the IC50 at PI 3-kinase beta is 1.1 µM; in assay [1] it was 2.84 µM; on PI 3-kinase alpha, 0.16 µM; in assay [2], over 10 µM.
Regarding `Cc1ncc(-c2cc(-c3cc(S(=O)(=O)NCC4(CO)COC4)ccc3C)cnc2N)s1` [Example 68, 3-(6-Amino-5-(2-methylthiazol-5-yl)pyridin-3-yl)-N-((3-(hydroxymethyl)oxetan-3-yl)methyl)-4-methylbenzenesulfonamide], the half-maximal inhibitory concentration (IC50) at PI 3-kinase beta is 2.8 µM; in assay [1], over 10 µM; on PI 3-kinase alpha, 0.5 µM; in assay [2], over 10 µM.
For `Cc1ccc(S(=O)(=O)NCCC(C)(C)O)cc1-c1cnc(N)c(-c2cnn(C)c2)c1` [Example 2, 3-(6-Amino-5-(1-methyl-1H-pyrazol-4-yl)pyridin-3-yl)-N-(3-hydroxy-3-methylbutyl)-4-methylbenzenesulfonamide], the IC50 at PI 3-kinase beta was 3.15 µM; in assay [1] it was 7.75 µM; at PI 3-kinase alpha it was 0.53 µM; in assay [2] it was 9.19 µM.
As for `Cc1noc(-c2cc(-c3cc(S(=O)(=O)N[C@H]4C[C@@H](O)C4)ccc3C)cnc2N)n1` [Example 5.5a, 3-(6-Amino-5-(3-methyl-1,2,4-oxadiazol-5-yl)pyridin-3-yl)-N-((1s,3s)-3-hydroxycyclobutyl)-4-methylbenzenesulfonamide], the concentration for half-maximal inhibition (IC50) is 2.9 µM on PI 3-kinase beta, over 10 µM in assay [1], 0.76 µM on PI 3-kinase alpha and 2.18 µM in assay [2].
Consider `Cc1cccc(NS(=O)(=O)c2ccc(C)c(-c3cnc(N)c(-c4cnn(CC(F)(F)F)c4)c3)c2)n1` [Example 1, 3-{6-Amino-5-[1-(2,2,2-trifluoro-ethyl)-1H-pyrazol-4-yl]-pyridin-3-yl}-4-methyl-N-(6-methyl-pyridin-2-yl)-benzenesulfonamide], for which the half-maximal inhibitory concentration (IC50) came out at 4.05 µM on PI 3-kinase beta, 7.08 µM in assay [1], 0.19 µM at PI 3-kinase alpha and 5.98 µM in assay [2].
For `Cc1noc(-c2cc(-c3cc(S(=O)(=O)NCC4(CO)CCCC4)ccc3C)cnc2N)n1` [Example 37.13, 3-(6-Amino-5-(3-methyl-1,2,4-oxadiazol-5-yl)pyridin-3-yl)-N-((1-(hydroxymethyl)cyclopentyl)methyl)-4-methylbenzenesulfonamide], the IC50 was 2.8 µM at PI 3-kinase beta, 2.21 µM in assay [1], 0.35 µM on PI 3-kinase alpha and 3.86 µM in assay [2].
Turning to `Cc1cc(-c2cc(-c3cc(S(=O)(=O)NC[C@H]4C[C@@H](O)C4)ccc3C)cnc2N)on1` [Example 84, cis-3-(6-Amino-5-(3-methylisoxazol-5-yl)pyridin-3-yl)-N-(((1s,3s)-3-hydroxycyclobutyl)methyl)-4-methylbenzenesulfonamide], the IC50 was 4.45 µM at PI 3-kinase beta, 7.03 µM in assay [1], 0.27 µM at PI 3-kinase alpha and over 10 µM in assay [2].
On to `Cc1noc(-c2cc(-c3cc(S(=O)(=O)NC[C@H]4CCCO4)ccc3C)cnc2N)n1` [Example 37.5, (R)-3-(6-Amino-5-(3-methyl-1,2,4-oxadiazol-5-yl)pyridin-3-yl)-4-methyl-N-((tetrahydrofuran-2-yl)methyl)benzenesulfonamide], for which the IC50 on PI 3-kinase beta is 5.3 µM; in assay [1] it was 1.88 µM; at PI 3-kinase alpha it was 0.16 µM; in assay [2] it was over 3 µM.
In the case of `Cc1ccc(S(=O)(=O)NCC(C)(C)O)cc1-c1cnc(N)c(-c2cc(C(=O)N3CCOCC3)no2)c1` [Example 42, 3-(6-Amino-5-(3-(morpholine-4-carbonyl)isoxazol-5-yl)pyridin-3-yl)-N-(2-hydroxy-2-methylpropyl)-4-methylbenzenesulfonamide], the IC50 on PI 3-kinase beta was over 10 µM; in assay [1], over 10 µM; at PI 3-kinase alpha it was 0.89 µM; in assay [2], over 10 µM.
As to `Cc1nc(-c2cc(-c3cc(S(=O)(=O)NCC(C)(C)O)ccc3C)cnc2N)cs1` [Example 59, 3-(6-Amino-5-(2-methylthiazol-4-yl)pyridin-3-yl)-N-(2-hydroxy-2-methylpropyl)-4-methylbenzenesulfonamide], the IC50 on PI 3-kinase beta was 9.2 µM; in assay [1], over 10 µM; at PI 3-kinase alpha it was 0.83 µM; in assay [2], over 10 µM.
For the compound `COC1(C)CN(S(=O)(=O)c2ccc(C)c(-c3cnc(N)c(-c4cc(C)no4)c3)c2)C1` [Example 37.20, 5-(5-((3-Methoxy-3-methylazetidin-yl)sulfonyl)-2-methylphenyl)-3-(3-methylisoxazol-5-yl)pyridin-2-amine], the IC50 at PI 3-kinase beta was 9 µM; in assay [1] it was 9.32 µM; on PI 3-kinase alpha it was 1.8 µM; in assay [2] it was over 10 µM.
As to `Cc1noc(-c2cc(-c3cc(S(=O)(=O)NCC4(CO)COC4)ccc3C)cnc2N)n1` [Example 52, 3-(6-Amino-5-(3-methyl-1,2,4-oxadiazol-5-yl)pyridin-3-yl)-N-((3-(hydroxymethyl)oxetan-3-yl)methyl)-4-methylbenzenesulfonamide], the IC50 was over 10 µM on PI 3-kinase beta, over 10 µM in assay [1], 1.1 µM on PI 3-kinase alpha and over 10 µM in assay [2].
Regarding `Cc1cc(-c2cc(-c3cc(S(=O)(=O)NC[C@@H]4CCOC4)ccc3C)cnc2N)on1` [Example 38, (S)-3-(6-Amino-5-(3-methylisoxazol-5-yl)pyridin-3-yl)-4-methyl-N-((tetrahydrofuran-3-yl)methyl)benzenesulfonamide], the IC50 at PI 3-kinase beta was 4.7 µM; in assay [1], over 10 µM; on PI 3-kinase alpha it was 0.32 µM; in assay [2], 4.23 µM.
On the same counts, the results for `Cc1ccc(S(=O)(=O)NCC(C)(C)O)cc1-c1cnc(N)c(-c2cc(C3CC3)no2)c1` [Example 35.3, 3-(6-Amino-5-(3-cyclopropylisoxazol-5-yl)pyridin-3-yl)-N-(2-hydroxy-2-methylpropyl)-4-methylbenzenesulfonamide hydrochloride] are 3.5 µM, over 10 µM, 0.39 µM and over 10 µM.
Turning to `Cc1ccc(S(=O)(=O)NCCC(C)(C)O)cc1-c1cnc(N)c(-c2ccncc2)c1` [Example 18, 3-(2-Amino-[3,4′]bipyridinyl-5-yl)-N-(3-hydroxy-3-methyl-butyl)-4-methyl-benzenesulfonamide], the IC50 at PI 3-kinase beta was 3.84 µM; in assay [1] it was 2.03 µM; at PI 3-kinase alpha, 0.09 µM; in assay [2] it was over 10 µM.
Consider `Cc1cc(-c2cc(-c3cc(S(=O)(=O)NC[C@H]4CCOC4)ccc3C)cnc2N)on1` [Example 4.7, (R)-3-(6-Amino-5-(3-methylisoxazol-5-yl)pyridin-3-yl)-4-methyl-N-((tetra hydrofuran-3-yl)methyl)benzene-sulfonamide hydrochloride], for which the IC50 at PI 3-kinase beta was 4.7 µM; in assay [1] it was 6.4 µM; on PI 3-kinase alpha, 0.3 µM; in assay [2], over 3 µM.
In the same order, the values of `Cc1noc(-c2cc(-c3cc(S(=O)(=O)NOC(C)C)ccc3C)cnc2N)n1` [Example 45, 3-(6-Amino-5-(3-methyl-1,2,4-oxadiazol-5-yl)pyridin-3-yl)-N-isopropoxy-4-methylbenzenesulfonamide] are 2.6 µM, over 10 µM, 0.23 µM and 2.93 µM.
On the same counts, the results for `CCc1noc(-c2cc(-c3cc(S(=O)(=O)NCC(C)(C)O)ccc3C)cnc2N)n1` [Example 5.3, 3-(6-Amino-5-(3-ethyl-1,2,4-oxadiazol-5-yl)pyridin-3-yl)-N-(2-hydroxy-2-methylpropyl)-4-methylbenzenesulfon-amide hydrochloride] are 5 µM, 7.56 µM, 1.4 µM and over 10 µM.
For `Cc1noc(-c2cc(-c3cc(S(=O)(=O)NCC4(CO)CCOCC4)ccc3C)cnc2N)n1` [Example 37.10, 3-(6-Amino-5-(3-methyl-1,2,4-oxadiazol-5-yl)pyridin-3-yl)-N-((4-(hydroxymethyl)tetrahydro-2H-pyran-4-yl)methyl)-4-methylbenzenesulfonamide], the IC50 at PI 3-kinase beta was 9.1 µM; in assay [1], 1.41 µM; at PI 3-kinase alpha, 0.56 µM; in assay [2], over 10 µM.
On to `COC1(C)CN(S(=O)(=O)c2ccc(C)c(-c3cnc(N)c(-c4nc(C)no4)c3)c2)C1` [Example 37.2, 5-(5-((3-Methoxy-3-methylazetidin-1-yl)sulfonyl)-2-methylphenyl)-3-(3-methyl-1,2,4-oxadiazol-5-yl)pyridin-2-amine], for which the half-maximal inhibitory concentration (IC50) on PI 3-kinase beta was over 10 µM; in assay [1] it was over 10 µM; on PI 3-kinase alpha, 1.4 µM; in assay [2] it was over 10 µM.
Regarding `Cc1ccc(S(=O)(=O)NCC(C)(C)O)cc1-c1cnc(N)c(-c2nc(C(C)C)no2)c1` [Example 5.1, 3-(6-Amino-5-(3-isopropyl-1,2,4-oxadiazol-5-yl)pyridin-3-yl)-N-(2-hydroxy-2-methylpropyl)-4-methylbenzenesulfonamide hydrochloride], the IC50 is 6.45 µM at PI 3-kinase beta, 8.94 µM in assay [1], 1.25 µM on PI 3-kinase alpha and over 3 µM in assay [2].

What is called IC50 is the concentration at which inhibition is half-maximal.

Values taken from patent US10112926B2 (priority 2014, dated 2018).
